# According to patent publication US10689622B2, “Culture medium for proliferating stem cell, which contains sulfated compound” (AJINOMOTO CO., INC., priority 2012, dated 2020):
# Assay: Measurement of content level of sulfur in test compound (ICP)
# Type: physicochemical
# Settings: ICPS-8100, evaluation samples containing 0.01 wt % test compound
# Text: (§1) The content level of sulfur in the sulfated saccharide is generally not less than 5 wt %, preferably not less than 10 wt %, more preferably not less than 15 wt %, and the upper limit is generally not more than 40 wt %, preferably not more than 35 wt %, more preferably not more than 30 wt %. […] Here, the content level of sulfur is a proportion in wt % of sulfur derived only from the sulfate group in sulfated saccharides, which can be measured by a method known in the field (e.g., rhodizonate method, elemental analysis or luminescent spectral analysis).
# as §1, with “polymer” for “saccharide”, “wt” for “wt %, preferably not more than 35 wt %, more preferably not more than 30 wt”, “in” for “derived only from”, “the” for “the sulfate group in”, “polymer,” for “saccharides,”, “such as” for “(e.g.,”
# The relationship between the content level of sulfur in a test compound (sulfur content) and the cell proliferation promoting effect was examined. The sulfur content was measured using ICPS-8100 manufactured by SHIMADZU CORPORATION and analyzed using ICPS-8000 series Ver1.03. As the reference standard of sulfur, the standard for ICP-MS manufactured by Accu Standard was used. […]
substance,measurement,value
tartrate-SO3Na,sulfur content Found (inorganic analysis),15 wt %
